Results on one molecule are retold here after ChEMBL document CHEMBL1152667, “Synthesis and radiopharmacological investigation of 3-[4'-[(18)F]fluorobenzylidene]indolin-2-one as possible tyrosine kinase inhibitor” (Bioorg Med Chem, 2009).

A short description of this test: Ratio of compound IC50 to SU-5416 IC50 for VEGFR.

`O=C1Nc2ccccc2/C1=C/c1ccc(F)cc1`: the Ratio IC50 was 7.
